# Data: ChEMBL document CHEMBL2218924, “A broad activity screen in support of a chemogenomic map for kinase signalling research and drug discovery” (Biochem J, 2013)
# By UniProt entry, the sequences of proteins in these tests, tags left out. Where a name states a change or a piece, a line headed by the entry shows the natural chain unless it says otherwise.
# UniProt P29317, whole entry: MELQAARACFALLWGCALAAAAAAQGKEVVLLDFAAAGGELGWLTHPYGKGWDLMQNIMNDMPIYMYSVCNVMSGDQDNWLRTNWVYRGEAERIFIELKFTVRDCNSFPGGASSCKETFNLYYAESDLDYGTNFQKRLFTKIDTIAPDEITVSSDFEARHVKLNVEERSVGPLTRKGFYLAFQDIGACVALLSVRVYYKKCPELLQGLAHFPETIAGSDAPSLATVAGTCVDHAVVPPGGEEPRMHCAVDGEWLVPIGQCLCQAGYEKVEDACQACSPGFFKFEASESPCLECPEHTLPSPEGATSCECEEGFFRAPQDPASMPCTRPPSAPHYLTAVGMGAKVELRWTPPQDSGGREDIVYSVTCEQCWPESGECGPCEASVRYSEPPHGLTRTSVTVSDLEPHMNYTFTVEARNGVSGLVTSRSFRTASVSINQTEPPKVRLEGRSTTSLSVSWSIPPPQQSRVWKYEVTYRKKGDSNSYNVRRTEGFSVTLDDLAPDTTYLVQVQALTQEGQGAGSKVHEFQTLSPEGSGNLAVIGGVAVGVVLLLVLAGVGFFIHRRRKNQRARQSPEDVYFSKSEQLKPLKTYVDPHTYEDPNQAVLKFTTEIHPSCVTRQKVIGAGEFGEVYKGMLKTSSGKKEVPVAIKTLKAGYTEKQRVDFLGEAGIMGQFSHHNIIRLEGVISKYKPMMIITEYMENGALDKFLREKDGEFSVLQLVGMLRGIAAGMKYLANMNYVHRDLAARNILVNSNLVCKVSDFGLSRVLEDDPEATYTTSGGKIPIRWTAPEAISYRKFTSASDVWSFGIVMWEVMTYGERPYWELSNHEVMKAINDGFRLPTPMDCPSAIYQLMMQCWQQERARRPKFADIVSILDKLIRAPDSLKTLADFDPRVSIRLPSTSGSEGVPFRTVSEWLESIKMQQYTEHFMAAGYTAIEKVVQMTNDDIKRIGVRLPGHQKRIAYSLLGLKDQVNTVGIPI
# UniProt P22607, whole entry, looked up: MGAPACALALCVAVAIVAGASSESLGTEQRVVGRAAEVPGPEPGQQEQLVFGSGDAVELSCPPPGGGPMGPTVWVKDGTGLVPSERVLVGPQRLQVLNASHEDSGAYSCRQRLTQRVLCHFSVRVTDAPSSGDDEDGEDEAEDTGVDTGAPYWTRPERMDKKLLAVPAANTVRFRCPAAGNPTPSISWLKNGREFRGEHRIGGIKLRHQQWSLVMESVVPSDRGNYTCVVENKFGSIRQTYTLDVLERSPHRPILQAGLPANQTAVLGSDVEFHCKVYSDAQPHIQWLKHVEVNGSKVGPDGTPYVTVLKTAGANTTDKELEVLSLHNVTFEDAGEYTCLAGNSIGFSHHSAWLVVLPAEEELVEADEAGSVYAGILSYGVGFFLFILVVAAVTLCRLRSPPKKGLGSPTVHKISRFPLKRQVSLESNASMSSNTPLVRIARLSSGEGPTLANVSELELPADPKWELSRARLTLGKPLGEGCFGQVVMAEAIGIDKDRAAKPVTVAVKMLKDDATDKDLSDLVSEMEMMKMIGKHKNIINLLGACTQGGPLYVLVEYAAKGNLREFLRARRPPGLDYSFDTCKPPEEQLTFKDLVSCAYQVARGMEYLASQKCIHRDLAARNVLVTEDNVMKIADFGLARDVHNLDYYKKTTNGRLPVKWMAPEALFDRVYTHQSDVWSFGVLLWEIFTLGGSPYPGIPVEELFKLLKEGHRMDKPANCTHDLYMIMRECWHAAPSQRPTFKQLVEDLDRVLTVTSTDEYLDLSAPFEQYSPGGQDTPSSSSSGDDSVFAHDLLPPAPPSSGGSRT
# UniProt P07332: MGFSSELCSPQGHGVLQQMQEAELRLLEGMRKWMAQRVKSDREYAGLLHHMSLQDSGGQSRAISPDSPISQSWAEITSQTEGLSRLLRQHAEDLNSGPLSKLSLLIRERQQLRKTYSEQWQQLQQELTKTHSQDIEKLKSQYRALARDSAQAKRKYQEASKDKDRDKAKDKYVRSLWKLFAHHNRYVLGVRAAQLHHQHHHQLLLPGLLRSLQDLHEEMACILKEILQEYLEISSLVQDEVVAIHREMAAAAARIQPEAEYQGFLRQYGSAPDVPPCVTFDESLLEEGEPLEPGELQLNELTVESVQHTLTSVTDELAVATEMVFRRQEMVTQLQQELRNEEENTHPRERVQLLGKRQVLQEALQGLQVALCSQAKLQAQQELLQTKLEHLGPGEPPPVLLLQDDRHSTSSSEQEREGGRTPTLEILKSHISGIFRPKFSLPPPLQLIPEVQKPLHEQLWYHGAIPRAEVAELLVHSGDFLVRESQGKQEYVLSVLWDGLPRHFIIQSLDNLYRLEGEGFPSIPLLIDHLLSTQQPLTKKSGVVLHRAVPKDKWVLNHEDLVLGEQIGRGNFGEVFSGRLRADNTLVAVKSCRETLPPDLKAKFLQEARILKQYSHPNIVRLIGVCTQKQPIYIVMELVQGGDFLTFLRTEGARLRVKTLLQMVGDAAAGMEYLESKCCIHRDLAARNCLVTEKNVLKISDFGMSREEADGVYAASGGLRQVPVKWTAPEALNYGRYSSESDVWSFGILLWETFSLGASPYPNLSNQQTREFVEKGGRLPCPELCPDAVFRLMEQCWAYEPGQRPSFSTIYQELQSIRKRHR
# UniProt P53778: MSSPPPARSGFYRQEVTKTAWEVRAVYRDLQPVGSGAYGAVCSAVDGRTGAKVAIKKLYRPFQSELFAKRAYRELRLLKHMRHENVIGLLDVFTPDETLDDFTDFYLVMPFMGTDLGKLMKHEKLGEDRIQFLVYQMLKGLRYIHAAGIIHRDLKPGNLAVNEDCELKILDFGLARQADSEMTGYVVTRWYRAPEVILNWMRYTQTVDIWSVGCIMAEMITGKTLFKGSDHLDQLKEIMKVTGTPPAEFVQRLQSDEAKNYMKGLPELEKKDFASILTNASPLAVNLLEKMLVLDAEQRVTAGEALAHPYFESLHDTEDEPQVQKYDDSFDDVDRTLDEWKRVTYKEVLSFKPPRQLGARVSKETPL
# UniProt Q13464: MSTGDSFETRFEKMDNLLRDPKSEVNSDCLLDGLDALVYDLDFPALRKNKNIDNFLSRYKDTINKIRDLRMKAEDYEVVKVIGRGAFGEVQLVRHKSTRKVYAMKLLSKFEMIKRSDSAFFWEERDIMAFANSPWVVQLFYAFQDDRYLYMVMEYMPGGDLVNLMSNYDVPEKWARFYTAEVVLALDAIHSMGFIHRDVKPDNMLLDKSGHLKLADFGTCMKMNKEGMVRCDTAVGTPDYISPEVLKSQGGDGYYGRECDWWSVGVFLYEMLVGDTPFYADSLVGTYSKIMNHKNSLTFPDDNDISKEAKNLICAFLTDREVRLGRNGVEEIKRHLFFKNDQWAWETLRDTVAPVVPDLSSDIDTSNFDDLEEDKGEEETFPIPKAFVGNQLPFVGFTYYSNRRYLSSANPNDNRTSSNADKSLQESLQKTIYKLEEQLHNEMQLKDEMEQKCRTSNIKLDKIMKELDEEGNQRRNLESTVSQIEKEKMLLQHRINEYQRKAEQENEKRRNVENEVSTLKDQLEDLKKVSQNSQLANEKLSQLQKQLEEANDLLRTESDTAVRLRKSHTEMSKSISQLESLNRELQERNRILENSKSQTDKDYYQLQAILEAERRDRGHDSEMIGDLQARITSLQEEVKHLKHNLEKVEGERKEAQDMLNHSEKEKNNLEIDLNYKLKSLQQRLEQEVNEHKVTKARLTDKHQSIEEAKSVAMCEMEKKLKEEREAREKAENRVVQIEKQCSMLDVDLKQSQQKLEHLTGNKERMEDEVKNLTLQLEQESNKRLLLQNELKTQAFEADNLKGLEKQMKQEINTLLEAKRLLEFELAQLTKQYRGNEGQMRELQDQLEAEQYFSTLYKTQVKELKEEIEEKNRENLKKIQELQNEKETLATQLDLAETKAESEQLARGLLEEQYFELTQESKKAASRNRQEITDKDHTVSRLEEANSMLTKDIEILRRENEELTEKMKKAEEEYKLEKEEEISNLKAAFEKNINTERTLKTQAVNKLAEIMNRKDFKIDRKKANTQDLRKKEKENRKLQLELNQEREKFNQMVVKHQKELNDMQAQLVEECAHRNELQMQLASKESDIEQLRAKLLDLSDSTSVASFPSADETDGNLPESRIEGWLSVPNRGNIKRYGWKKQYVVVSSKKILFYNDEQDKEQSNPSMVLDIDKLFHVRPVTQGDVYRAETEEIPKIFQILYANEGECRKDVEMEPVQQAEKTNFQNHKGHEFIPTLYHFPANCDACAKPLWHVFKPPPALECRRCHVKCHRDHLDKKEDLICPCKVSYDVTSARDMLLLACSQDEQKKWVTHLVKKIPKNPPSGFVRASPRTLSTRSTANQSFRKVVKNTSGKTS
# UniProt Q15418, whole entry: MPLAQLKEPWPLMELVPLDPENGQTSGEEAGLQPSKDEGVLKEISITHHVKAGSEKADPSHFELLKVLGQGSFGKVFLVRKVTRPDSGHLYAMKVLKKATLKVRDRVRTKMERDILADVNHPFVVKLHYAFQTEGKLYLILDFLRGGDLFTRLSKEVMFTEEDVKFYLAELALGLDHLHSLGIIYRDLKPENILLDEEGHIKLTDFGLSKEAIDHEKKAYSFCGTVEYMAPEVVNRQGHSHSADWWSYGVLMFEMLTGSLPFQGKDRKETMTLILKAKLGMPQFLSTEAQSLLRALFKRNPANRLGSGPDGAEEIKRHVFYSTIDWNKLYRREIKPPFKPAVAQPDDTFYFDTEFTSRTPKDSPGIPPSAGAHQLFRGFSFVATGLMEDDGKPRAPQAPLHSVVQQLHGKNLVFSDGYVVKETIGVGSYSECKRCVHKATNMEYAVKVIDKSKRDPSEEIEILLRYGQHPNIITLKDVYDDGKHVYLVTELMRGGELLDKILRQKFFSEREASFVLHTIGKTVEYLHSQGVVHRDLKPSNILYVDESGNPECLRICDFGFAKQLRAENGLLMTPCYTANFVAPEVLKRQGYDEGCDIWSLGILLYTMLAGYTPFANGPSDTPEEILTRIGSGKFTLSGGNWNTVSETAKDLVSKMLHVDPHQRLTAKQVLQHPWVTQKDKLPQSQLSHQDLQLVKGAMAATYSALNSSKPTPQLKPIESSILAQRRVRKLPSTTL
# UniProt P52564: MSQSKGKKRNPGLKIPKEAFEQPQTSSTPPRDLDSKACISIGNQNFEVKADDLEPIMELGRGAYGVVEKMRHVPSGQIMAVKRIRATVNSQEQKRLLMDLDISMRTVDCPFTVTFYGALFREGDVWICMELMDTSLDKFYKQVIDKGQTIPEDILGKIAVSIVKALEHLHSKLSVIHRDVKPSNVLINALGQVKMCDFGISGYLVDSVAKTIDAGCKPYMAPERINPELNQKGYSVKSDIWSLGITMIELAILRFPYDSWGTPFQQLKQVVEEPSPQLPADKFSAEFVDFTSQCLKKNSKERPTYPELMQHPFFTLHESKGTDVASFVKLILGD
# UniProt P24864, whole entry, looked up: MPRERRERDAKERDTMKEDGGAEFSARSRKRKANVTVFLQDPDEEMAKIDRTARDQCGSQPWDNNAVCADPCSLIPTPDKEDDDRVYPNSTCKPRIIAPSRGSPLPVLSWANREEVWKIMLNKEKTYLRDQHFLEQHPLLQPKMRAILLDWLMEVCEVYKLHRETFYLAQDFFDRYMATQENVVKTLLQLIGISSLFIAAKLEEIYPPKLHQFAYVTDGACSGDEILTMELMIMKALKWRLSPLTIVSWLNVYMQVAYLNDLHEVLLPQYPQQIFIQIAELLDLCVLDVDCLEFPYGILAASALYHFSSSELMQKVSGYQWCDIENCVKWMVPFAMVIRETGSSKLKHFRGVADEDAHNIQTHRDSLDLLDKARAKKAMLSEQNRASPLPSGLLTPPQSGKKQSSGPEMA
# For part of these data: What follows is the remainder of the data, with few or none of the strong results. This is a selection; strong and weak results do not stand in their true shares.
# Legend:
# [1] = target: Tyrosine-protein kinase BTK (Homo sapiens) (UniProt Q06187); conditions: at 1 µM
# [2] = target: Epidermal growth factor receptor (Homo sapiens) (UniProt P00533); conditions: at 1 µM
# [3] = target: Epidermal growth factor receptor (Homo sapiens) (UniProt P00533); conditions: at 10 µM
# [4] = target: Ephrin type-A receptor 2 (Homo sapiens) (UniProt P29317); conditions: at 1 µM
# [5] = target: Ephrin type-B receptor 1 (Homo sapiens) (UniProt P54762); conditions: at 10 µM
# [6] = target: Ephrin type-B receptor 2 (Homo sapiens) (UniProt P29323); conditions: at 1 µM
# [7] = target: Fibroblast growth factor receptor 3 (Homo sapiens) (UniProt P22607); conditions: at 10 µM
# [8] = target: Tyrosine-protein kinase Fes/Fps (Homo sapiens) (UniProt P07332); conditions: at 10 µM
# [9] = target: Homeodomain-interacting protein kinase 3 (Homo sapiens) (UniProt Q9H422); conditions: at 1 µM
# [10] = target: T1, Protein kinase C iota type (Homo sapiens) (UniProt P41743); conditions: at 10 µM
# T1 sequence (whole entry): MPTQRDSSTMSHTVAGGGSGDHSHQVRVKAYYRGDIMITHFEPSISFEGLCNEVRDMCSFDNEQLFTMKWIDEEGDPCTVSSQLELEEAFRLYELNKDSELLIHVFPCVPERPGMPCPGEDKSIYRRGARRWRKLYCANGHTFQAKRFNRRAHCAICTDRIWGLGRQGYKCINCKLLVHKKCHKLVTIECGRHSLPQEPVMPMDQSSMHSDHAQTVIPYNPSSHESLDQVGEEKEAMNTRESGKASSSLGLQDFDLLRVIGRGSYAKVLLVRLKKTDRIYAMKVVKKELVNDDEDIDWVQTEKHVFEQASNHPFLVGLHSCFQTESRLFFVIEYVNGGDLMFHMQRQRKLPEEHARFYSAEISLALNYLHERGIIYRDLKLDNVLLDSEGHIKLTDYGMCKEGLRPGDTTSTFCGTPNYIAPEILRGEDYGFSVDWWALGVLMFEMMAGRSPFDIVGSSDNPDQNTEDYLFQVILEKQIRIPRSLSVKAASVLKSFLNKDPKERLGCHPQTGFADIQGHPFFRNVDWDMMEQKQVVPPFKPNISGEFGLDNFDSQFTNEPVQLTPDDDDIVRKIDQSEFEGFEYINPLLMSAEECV
# [11] = target: T2, cGMP-dependent protein kinase 1 (Homo sapiens) (UniProt Q13976); conditions: at 1 µM
# T2 sequence (whole entry): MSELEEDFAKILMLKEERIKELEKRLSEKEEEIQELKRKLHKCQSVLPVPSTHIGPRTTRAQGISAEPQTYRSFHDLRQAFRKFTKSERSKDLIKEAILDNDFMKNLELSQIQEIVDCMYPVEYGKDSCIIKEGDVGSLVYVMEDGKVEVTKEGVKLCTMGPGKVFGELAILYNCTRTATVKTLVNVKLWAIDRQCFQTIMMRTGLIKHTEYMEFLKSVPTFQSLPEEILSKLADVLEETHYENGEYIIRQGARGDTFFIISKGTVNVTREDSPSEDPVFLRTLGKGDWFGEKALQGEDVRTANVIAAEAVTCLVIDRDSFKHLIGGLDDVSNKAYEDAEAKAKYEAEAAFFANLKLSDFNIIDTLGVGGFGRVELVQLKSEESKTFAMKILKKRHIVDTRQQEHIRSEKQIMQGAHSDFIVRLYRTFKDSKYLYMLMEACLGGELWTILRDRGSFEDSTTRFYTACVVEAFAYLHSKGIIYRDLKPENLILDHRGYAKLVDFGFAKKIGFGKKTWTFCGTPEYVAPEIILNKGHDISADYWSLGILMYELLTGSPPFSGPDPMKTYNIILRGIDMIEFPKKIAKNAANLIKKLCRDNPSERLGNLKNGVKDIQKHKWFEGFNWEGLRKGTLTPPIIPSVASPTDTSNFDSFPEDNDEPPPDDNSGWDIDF
# [12] = target: Serine/threonine-protein kinase PLK3 (Homo sapiens) (UniProt Q9H4B4); conditions: at 1 µM
# [13] = target: Tyrosine-protein kinase receptor TYRO3 (Homo sapiens) (UniProt Q06418); conditions: at 10 µM
# [14] = target: Mitogen-activated protein kinase 12 (Homo sapiens) (UniProt P53778); conditions: at 1 µM
# [15] = target: Serine/threonine-protein kinase Sgk3 (Homo sapiens) (UniProt Q96BR1); conditions: at 1 µM
# [16] = target: Serine/threonine-protein kinase PLK2 (Homo sapiens) (UniProt Q9NYY3); conditions: at 1 µM;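 further: residual PLK2 kinase activity expressed as percent of uninhibited control, measured in MOPS buffer at pH 7.0 with EDTA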
# [17] = target: Insulin-like growth factor 1 receptor (Homo sapiens) (UniProt P08069); conditions: at 10 µM
# [18] = target: Serine/threonine-protein kinase WNK2 (Homo sapiens) (UniProt Q9Y3S1); conditions: at 1 µM;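 further: residual WNK2 kinase activity expressed as percent of uninhibited control, assayed in MOPS buffer at pH 7.0 containing EDTA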
# [19] = target: T3, Eukaryotic elongation factor 2 kinase (Homo sapiens) (UniProt O00418); conditions: at 1 µM
# T3 sequence (whole entry): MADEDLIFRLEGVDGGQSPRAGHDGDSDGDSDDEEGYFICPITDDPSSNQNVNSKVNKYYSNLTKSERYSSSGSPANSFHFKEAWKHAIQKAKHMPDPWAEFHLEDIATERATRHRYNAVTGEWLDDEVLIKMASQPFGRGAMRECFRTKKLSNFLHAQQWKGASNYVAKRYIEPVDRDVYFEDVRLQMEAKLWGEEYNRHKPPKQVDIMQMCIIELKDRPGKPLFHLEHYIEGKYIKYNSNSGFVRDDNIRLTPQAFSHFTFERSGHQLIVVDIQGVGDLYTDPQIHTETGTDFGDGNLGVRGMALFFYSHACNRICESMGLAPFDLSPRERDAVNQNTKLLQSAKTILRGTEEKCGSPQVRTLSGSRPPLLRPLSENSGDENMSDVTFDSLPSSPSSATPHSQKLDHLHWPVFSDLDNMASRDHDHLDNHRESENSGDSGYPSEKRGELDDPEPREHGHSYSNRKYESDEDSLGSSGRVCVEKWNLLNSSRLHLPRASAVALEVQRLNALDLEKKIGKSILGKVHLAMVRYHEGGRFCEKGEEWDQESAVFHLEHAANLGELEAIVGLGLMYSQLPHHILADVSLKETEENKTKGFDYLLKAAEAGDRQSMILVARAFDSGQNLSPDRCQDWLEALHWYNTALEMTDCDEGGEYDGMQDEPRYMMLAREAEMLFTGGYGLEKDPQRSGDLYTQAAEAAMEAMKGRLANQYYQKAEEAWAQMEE
# [20] = target: T3, Eukaryotic elongation factor 2 kinase (Homo sapiens); conditions: at 10 µM
# [21] = target: Serine/threonine-protein kinase mTOR (Homo sapiens) (UniProt P42345); conditions: at 1 µM
# [22] = target: Serine/threonine-protein kinase Nek6 (Homo sapiens) (UniProt Q9HC98); conditions: at 1 µM
# [23] = target: Serine/threonine-protein kinase Nek7 (Homo sapiens) (UniProt Q8TDX7); conditions: at 1 µM
# [24] = target: RAC-alpha serine/threonine-protein kinase (Homo sapiens) (UniProt P31749); conditions: at 1 µM
# [25] = target: Protein kinase C alpha type (Homo sapiens) (UniProt P17252); conditions: at 1 µM
# [26] = target: Ephrin type-A receptor 4 (Homo sapiens) (UniProt P54764); conditions: at 1 µM
# [27] = target: Rho-associated protein kinase 1 (Homo sapiens) (UniProt Q13464); conditions: at 1 µM
# [28] = target: Ribosomal protein S6 kinase alpha-1 (Homo sapiens) (UniProt Q15418); conditions: at 1 µM
# [29] = target: Serine/threonine-protein kinase TAO2 (Homo sapiens) (UniProt Q9UL54); conditions: at 1 µM
# [30] = target: Dual specificity mitogen-activated protein kinase kinase 6 (Homo sapiens) (UniProt P52564); conditions: at 1 µM
# [31] = target: Hepatocyte growth factor receptor (Homo sapiens) (UniProt P08581); conditions: at 1 µM
# [32] = target: Tyrosine-protein kinase Yes (Homo sapiens) (UniProt P07947); conditions: at 1 µM
# [33] = target: Serine/threonine-protein kinase mTOR (Homo sapiens) (UniProt P42345); conditions: at 1 µM; remark: listed apart in the source
# [34] = target: PAS domain-containing serine/threonine-protein kinase (Homo sapiens) (UniProt Q96RG2); conditions: at 1 µM
# [35] = target: CDK3/cyclin E (Homo sapiens) (UniProt P24864+O96020+Q00526); conditions: at 1 µM
structure (smiles),measurement,setting,value
O=C1NC(=O)C(c2cn(CCCO)c3ncccc23)=C1c1cnccn1,residual activity,[1],106%
same,residual activity,[2],105%
same,residual activity,[3],104%
same,residual activity,[4],101%
same,residual activity,[5],104%
same,residual activity,[6],111%
same,residual activity,[7],102%
same,residual activity,[8],101%
same,residual activity,[9],103%
same,residual activity,[10],109%
same,residual activity,[11],114%
same,residual activity,[12],inactive: 106%
same,residual activity,[13],105%
same,residual activity,[14],107%
same,residual activity,[15],113%
same,residual activity,[16],107%
same,residual activity,[17],110%
same,residual activity,[18],inactive: 108%
same,residual activity,[19],inactive: 99%
same,residual activity,[20],108%
same,residual activity,[21],104%
same,residual activity,[22],inactive: 102%
same,residual activity,[23],inactive: 108%
same,residual activity,[24],109%
same,residual activity,[25],103%
Cn1nc2c3c(cccc31)C(=O)c1ccccc1-2,residual activity,[2],110%
same,residual activity,[3],118%
same,residual activity,[26],120%
same,residual activity,[27],116%
same,residual activity,[28],114%
same,residual activity,[29],114%
same,residual activity,[30],116%
same,residual activity,[31],117%
same,residual activity,[32],115%
same,residual activity,[19],inactive: 99%
same,residual activity,[20],78%
same,residual activity,[33],117%
same,residual activity,[34],119%
O=C1Cc2c([nH]c3ccc([N+](=O)[O-])cc23)-c2ccccc2N1,residual activity,[35],15%
CCCCc1c(-c2ccc(OC)cc2)[nH]c2nccnc12,residual activity,[2],105%
same,residual activity,[3],106%
same,residual activity,[19],inactive: 112%
Nc1nc(Nc2ccc(S(N)(=O)=O)cc2)nn1C(=O)c1c(F)cccc1F,residual activity,[2],105%
same,residual activity,[3],98%
Cc1nc(-c2ccccc2)c(-c2ccncc2)o1,residual activity,[2],107%
same,residual activity,[3],96%
same,residual activity,[19],inactive: 117%
same,residual activity,[20],86%
O=C1Nc2ccccc2/C1=C1/Nc2ccccc2/C1=N\OCCC(O)CO (stereo not given),residual activity,[2],110%
same,residual activity,[3],79%
COc1cc2ncnc(Nc3ccc(O)c(Br)c3)c2cc1OC,residual activity,[2],-4%
same,residual activity,[3],-3%
same,residual activity,[19],inactive: 96%
same,residual activity,[20],110%
COc1ccc2c(c1)c(C1=C(c3c[nH]c4ccccc34)C(=O)NC1=O)cn2CCCN(C)C,residual activity,[2],82%
Nc1cccc(-c2cc3c(Oc4cccc(O)c4)ncnc3[nH]2)c1,residual activity,[2],0%
same,residual activity,[3],-4%
CC[n+]1c(/C=C/N(C)c2ccccc2)n(-c2ccccc2)c2ccc(-c3nc4ccccc4s3)cc21,residual activity,[2],115%
same,residual activity,[3],108%
same,residual activity,[19],inactive: 99%
